Patent US5039512A, “NMR imaging with paramagnetic polyvalent metal salts of poly-(acid-alkylene-amino)-alkanes” (Salutar, Inc., priority 1987, dated 1991)

What was measured:
[1] = Stability constant (binding ability) towards manganese; conditions: relative to its EDTA analogue
[2] = Relaxivities (T1, T2) of protons in water exposed to the complexes; format: physicochemical; conditions: 10 mHz, 37° C.
Experimental: (§1) c) Relaxitivities of protons present in water and plasma exposed to the complexes of (a) and (b) (at 10 mHz) (37° C.) in milliseconds:
(§2) c) Relaxivities of protons present in water and plasma exposed to (a) and (b) at 10 mHz (37 C) in milliseconds: […]

[3] = Relaxivities (T1, T2) of protons in plasma exposed to the complexes; format: physicochemical; conditions: 10 mHz, 37° C.
Experimental: as §1, §2

[4] = Organ distribution in male rabbits, proton relaxation values in vitro (Example 2); format: in vivo; conditions: 15 minutes post-injection, in vitro 10 mHz
Experimental: e) Organ distribution of (a) and (b) in male rabbits: The rabbits were sacrificed at 69 minutes post injection for (a) and 15 minutes post-injection for (b) and the proton relaxation values measured in milliseconds, in vitro at 10 mHz, for each of the various organs.

manganese salt of trans-N,N,N',N'-tetra-carboxymethyl-1,2-diaminocyclohexane [manganese salt of DCTA]
Stability of manganese-nitrogen bond [1]: considerably more stable than its EDTA analogue

calcium salt of the manganese complex of trans-1,2-diamino-cyclohexane-N,N,N',N'-tetramethylene phosphonic acid [Example 2(b)]
T1 water ([2]; 1 × 10^-2 moles/liter): 16 milliseconds
T2 water ([2]; 1 × 10^-2 moles/liter): 8 milliseconds
T1 water ([2]; 1.25 × 10^-3 moles/liter): 88 milliseconds
T2 water ([2]; 1.25 × 10^-3 moles/liter): 69 milliseconds
T1 water ([2]; 1.56 × 10^-4 moles/liter): 555 milliseconds
T1 water ([2]; 2.5 × 10^-3 moles/liter): 54 milliseconds
T2 water ([2]; 2.5 × 10^-3 moles/liter): 36 milliseconds
T1 water ([2]; 3.12 × 10^-4 moles/liter): 310 milliseconds
T1 water ([2]; 6.25 × 10^-4 moles/liter): 172 milliseconds
T1 water ([2]; 7.80 × 10^-5 moles/liter): 987 milliseconds
T1 plasma ([3]; 1 × 10^-2 moles/liter): 15 milliseconds
T2 plasma ([3]; 1 × 10^-2 moles/liter): 10 milliseconds
T1 plasma ([3]; 1.25 × 10^-3 moles/liter): 91 milliseconds
T2 plasma ([3]; 1.25 × 10^-3 moles/liter): 74 milliseconds
T1 plasma ([3]; 1.56 × 10^-4 moles/liter): 269 milliseconds
T1 plasma ([3]; 2.5 × 10^-3 moles/liter): 51 milliseconds
T2 plasma ([3]; 2.5 × 10^-3 moles/liter): 45 milliseconds
T1 plasma ([3]; 3.12 × 10^-4 moles/liter): 212 milliseconds
T1 plasma ([3]; 6.25 × 10^-4 moles/liter): 142 milliseconds
T1 plasma ([3]; 7.80 × 10^-5 moles/liter): 372 milliseconds
T1 testis [4]: 294 milliseconds
T2 testis [4]: 79 milliseconds
T1 brain ([4]; male rabbits): 537 milliseconds
T2 brain ([4]; male rabbits): 85 milliseconds
T2 skeletal muscle ([4]; normal value 47): 34 milliseconds
T2 stomach ([4]; normal value 69): 42 milliseconds
T2 heart ([4]; normal value 70): 40 milliseconds
T2 large intestine ([4]; normal value 77): 58 milliseconds
T2 small intestine ([4]; normal value 79): 60 milliseconds
T2 renal cortex ([4]; normal value 85): 51 milliseconds
T2 lung ([4]; normal value 112): 84 milliseconds
T2 renal medulla ([4]; normal value 149): 47 milliseconds
T2 fat ([4]; normal value 154): 95 milliseconds
T1 fat ([4]; normal value 171): 157 milliseconds
T1 renal cortex ([4]; normal value 338): 109 milliseconds
T1 large intestine ([4]; normal value 349): 248 milliseconds
T1 stomach ([4]; normal value 349): 199 milliseconds
T1 small intestine ([4]; normal value 352): 269 milliseconds
T1 skeletal muscle ([4]; normal value 423): 395 milliseconds
T1 heart ([4]; normal value 504): 191 milliseconds
T1 lung ([4]; normal value 595): 323 milliseconds
T1 renal medulla ([4]; normal value 672): 103 milliseconds

calcium salt of the gadolinium complex of trans-1,2-diamino-cyclohexane-N,N,N',N'tetramethylene phosphonic acid [Example 3(b)]
T1 water ([2]; 1 × 10^-2 moles/liter): 15 milliseconds
T2 water ([2]; 1 × 10^-2 moles/liter): 8 milliseconds
T1 water ([2]; 1.25 × 10^-3 moles/liter): 70 milliseconds
T2 water ([2]; 1.25 × 10^-3 moles/liter): 65 milliseconds
T1 water ([2]; 1.56 × 10^-4 moles/liter): 468 milliseconds
T1 water ([2]; 2.5 × 10^-3 moles/liter): 49 milliseconds
T2 water ([2]; 2.5 × 10^-3 moles/liter): 35 milliseconds
T1 water ([2]; 3.12 × 10^-4 moles/liter): 257 milliseconds
T1 water ([2]; 5 × 10^-3 moles/liter): 25 milliseconds
T2 water ([2]; 5 × 10^-3 moles/liter): 17 milliseconds
T1 water ([2]; 6.25 × 10^-4 moles/liter): 126 milliseconds
T2 water ([2]; 6.25 × 10^-4 moles/liter): 114 milliseconds
T1 water ([2]; 7.80 × 10^-5 moles/liter): 762 milliseconds
T1 plasma ([3]; 1 × 10^-2 moles/liter): 14 milliseconds
T2 plasma ([3]; 1 × 10^-2 moles/liter): 7 milliseconds
T1 plasma ([3]; 1.25 × 10^-3 moles/liter): 60 milliseconds
T2 plasma ([3]; 1.25 × 10^-3 moles/liter): 42 milliseconds
T1 plasma ([3]; 1.56 × 10^-4 moles/liter): 263 milliseconds
T1 plasma ([3]; 2.5 × 10^-3 moles/liter): 36 milliseconds
T2 plasma ([3]; 2.5 × 10^-3 moles/liter): 26 milliseconds
T1 plasma ([3]; 3.12 × 10^-4 moles/liter): 149 milliseconds
T1 plasma ([3]; 5 × 10^-3 moles/liter): 20 milliseconds
T2 plasma ([3]; 5 × 10^-3 moles/liter): 16 milliseconds
T1 plasma ([3]; 6.25 × 10^-4 moles/liter): 95 milliseconds
T1 plasma ([3]; 7.80 × 10^-5 moles/liter): 447 milliseconds
